From PubChem BioAssay AID504441 (Broad Institute, 2011)
Only a part is listed here, and it is no random draw. Active and inactive are the calls of the source. Cut-off read from the data, not from the text of the source: active = inhibition above about 50%; inactive = the rest.

target: Dual specificity tyrosine-phosphorylation-regulated kinase 1A (Rattus norvegicus) (UniProt Q63470); test: rat Dyrk1A kinase inhibitors, primary screen, biochemical, single point, plate reader (AID 504441); details: ADP-Glo luminescence, NFATc1 peptide, at 12.5 µM, stronger effect = higher value;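 note: plate controls were vehicle with enzyme for no effect and no enzyme for full effect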

SMILES | inhibition
Clc1ccc(Cl)c(NC2=NCC(CBr)S2)c1 (centres undefined) | inactive: -1.98%
CN1CCCC(OC(=O)C(c2ccccc2)c2ccccc2)C1 (centres undefined) | inactive: -1.09%
COc1ccccc1OP(=O)(Nc1ccc(C)cn1)Oc1ccccc1OC | inactive: 1.53%
CN(C(=O)Cc1ccc(Cl)c(Cl)c1)[C@H]1CCCC[C@H]1N1CCCC1 | inactive: -3.16%
Cc1ccc(N/C(=N/P(=O)(N2CCOCC2)N2CCOCC2)N2CCOCC2)cc1 | inactive: 2.46%
NC(=O)c1cc([N+](=O)[O-])cc([N+](=O)[O-])c1N | inactive: 8.58%
Oc1ccccc1CNc1ccccn1 | inactive: -2.66%
O=C(NC(Sc1ccncn1)C(Cl)(Cl)Cl)c1ccccc1 (centres undefined) | inactive: -4.61%
CC(C)CC(=O)NC(Sc1ccc(Cl)cc1)C(Cl)(Cl)Cl (centres undefined) | inactive: 4.87%
Nc1cc(N)c2nonc2c1[N+](=O)[O-] | inactive: 22.5%
CCOP(=O)(Nc1ccccc1)OCC | inactive: 10.3%
Cc1cc(SC(NC(=O)c2ccc(F)cc2)C(Cl)(Cl)Cl)ncn1 (centres undefined) | inactive: -0.763%
CN(C(=O)Cc1ccc(Cl)c(Cl)c1)[C@H]1CCCC[C@@H]1N1CCCC1 | inactive: 0.184%
Cc1ccc(NP(=O)(Oc2ccccc2F)Oc2ccccc2F)nc1 | inactive: -1.53%
O=P(Nc1nc2ccc(Cl)cc2s1)(c1ccccc1)c1ccccc1 | inactive: 2.48%
O=C(O)c1ccccc1[As](=O)(O)O | inactive: 2.89%
CC(=O)Nc1ccc([As](=O)(O)O)cc1 | inactive: 1.63%
CCCC1OP(N)(=O)OCC1CC (centres undefined) | inactive: -5.34%
Nc1cccc2ccc([As](=O)(O)O)cc12 | inactive: -1.17%
CCN(N=Nc1nonc1N)c1nonc1N | inactive: 15.8%
O=C(Nc1cc([As](=O)(O)O)ccc1O)c1ccccc1 | inactive: 2.93%
O=P1(N(CCCl)CCCl)OCCCS1 (centres undefined) | inactive: 4.88%

SMILES | inhibition
O=C(O)CNc1ccc([As](=O)(O)O)cc1 | inactive: 3.25%
O=[N+]([O-])c1cccc(NC2=NCC(CBr)S2)c1 (centres undefined) | inactive: 11.8%
COC(=O)C1(C)COP(=O)(Nc2ccccc2)OC1 (centres undefined) | inactive: 4.27%
O=[N+]([O-])c1ncn(CCn2ncnc2[N+](=O)[O-])n1 | inactive: -1.51%
CC(C)(C)C(=O)NC(Sc1ccncn1)C(Cl)(Cl)Cl (centres undefined) | inactive: 2.63%
O=[N+]([O-])c1cc([N+](=O)[O-])c(CCNc2ccccc2)c([N+](=O)[O-])c1 | inactive: -6.29%
CCc1nc2c(n1)c1c(non1O)c1c2no[n+]1[O-] | inactive: 16.9%
CC(=O)N1C2C3N(C(C)=O)C1C1N(C(C)=O)C(C(N1C(C)=O)N3C(C)=O)N2C(C)=O | inactive: 14.8%
O=[N+]([O-])c1cccc2n[nH]nc12 | inactive: -0.793%
CC1CCN(C(=O)Oc2c(Cl)cc(Cl)c3cccnc23)CC1 | inactive: 7.36%
CC(C)=N/N=C(\N)N[N+](=O)[O-] | inactive: 0.306%
CN(C)C(=O)OCCc1n(C)cc[n+]1C | inactive: -6.14%
CCN(/C(=N/P(=O)(N1CCOCC1)N1CCOCC1)N1CCOCC1)c1ccc(OC)cc1 | inactive: 1.14%
Nc1ccc([As](=O)(O)c2ccc(N)cc2)cc1 | inactive: 3.11%
C[N+]1=C2C=CC=CC=C2SC12C([N+](=O)[O-])=CC([N+](=O)[O-])=C[C-]2[N+](=O)[O-] (centres undefined) | inactive: 4.82%
c1nnnn1CCn1cnnn1 | inactive: -0.426%
O=P(Nc1nccs1)(c1ccccc1)c1ccccc1 | inactive: -4.3%
CC(C)C(=O)NC(Sc1ccccc1)C(Cl)(Cl)Cl (centres undefined) | inactive: 2.06%
O=P(Nc1nc2ccccc2s1)(c1ccccc1)c1ccccc1 | inactive: 3.39%
C[C@H]1OP(=O)(Oc2ccccc2)[C@H](O)[C@H](O)[C@H]1N=[N+]=[N-] (some centres undefined) | inactive: 0.172%
CN(C)C1(CNC(=O)c2ccc(Cl)c(S(N)(=O)=O)c2)CCCCC1 | inactive: -3.48%
O=P(Nc1ccccn1)(c1ccc(Br)cc1)c1ccc(Br)cc1 | inactive: -0.861%

SMILES | inhibition
COc1ccc(N)c([N+](=O)[O-])c1[N+](=O)[O-] | inactive: -3.23%
O=C(OC1CN2CCC1CC2)c1cccc(Cl)c1 (centres undefined) | inactive: -1.42%
Nc1ccc([As](=O)(O)c2ccc([N+](=O)[O-])cc2)cc1 | inactive: -1.2%
C(Cc1nn[nH]n1)Cc1nn[nH]n1 | inactive: 2.37%
O=[As](O)(c1ccccc1)c1ccc(O)cc1 | inactive: 4.77%
O=[N+]([O-])c1ncn(CCn2cnc([N+](=O)[O-])n2)n1 | inactive: 6.2%
CC(=O)NC(SC(=S)N(C)C)C(Cl)(Cl)Cl (centres undefined) | inactive: -5.39%
O=[N+]([O-])c1ccc(O)c(/C=N/Nc2ccc([N+](=O)[O-])cc2[N+](=O)[O-])c1 | inactive: 0.614%
O=P1(N(CCCl)CCCl)OCCC2CCCCN21 (centres undefined) | inactive: 12.8%
c1ccc(-c2nn[nH]n2)c(-c2nn[nH]n2)c1 | inactive: -3.12%
Cc1ccc(NP(=O)(Oc2cccc(C)c2)Oc2cccc(C)c2)nc1 | inactive: -7.53%
O=C(NC1CCS(=O)(=O)C1)NP(=S)(Oc1ccccc1)Oc1ccccc1 (centres undefined) | inactive: -2.54%
CCNC(=S)/N=C(\N)N[N+](=O)[O-] | inactive: -5.59%
CN(C)C(=O)Oc1noc2ccccc12 | inactive: 11.9%
O=c1c2cc([N+](=O)[O-])ccc2[nH]c2c([N+](=O)[O-])cc([N+](=O)[O-])cc12 | inactive: -2.81%
O=C(OC1CN2CCC1CC2)c1ccccc1 (centres undefined) | inactive: -2.84%
CCC(=O)N1C2C3N(C(=O)CC)C1C1N(C(=O)CC)C(C(N1C(=O)CC)N3C(=O)CC)N2C(=O)CC | inactive: -8.23%
COC(=O)c1cc2c(s1)N=C(c1ccccc1)N(C)P2(=O)N1CCOCC1 (centres undefined) | inactive: -9.87%
Cc1ccc(OP(=O)(Nc2ccccn2)Oc2ccc(C)cc2)cc1 | inactive: 0.595%
CC(=O)NC(SC(=S)N(CC(C)C)CC(C)C)C(Cl)(Cl)Cl (centres undefined) | inactive: -2.84%
